# Test results: PubChem BioAssay AID738 (SRMLSC, 2007)
# The list shows a part of the results, in another mix than the full data. Activity calls are given as the source filed them. Cut-off read from the data, not from the text of the source: active = inhibition above about 30%; inactive = the rest.
# Assay: yeast control strain growth suppression – counter-screen for post-Golgi transport modulator project, primary screen (AID 738)
# Settings: efflux-deficient yeast background strain, growth absorbance A615, 16 h; at 10 µM; hits give high values
row,Structure (SMILES),inhibition
1,CP(=O)(OC12CC3CC(CC(C3)C1)C2)OC12CC3CC(CC(C3)C1)C2,active: 38.9%
2,CC(C)(C)c1ccc(OP(C)(=O)O)cc1,inactive: 8.61%
3,CP(=O)(Nc1ccc(Cl)cc1)Oc1ccc(F)cc1 (configuration not stated),inactive: 18.4%
4,CCN(CC)CC(O)COC(=O)C(O)(c1ccccc1)C1CCCCC1 (configuration not stated),inactive: 4.08%
5,CP(=O)(Oc1ccccc1)N1CCOC1=O (configuration not stated),inactive: -0.3%
6,Cc1c(NP(C)(=O)Oc2ccc(C(C)C)cc2)c(=O)n(-c2ccccc2)n1C (configuration not stated),inactive: -3.17%
7,CP(=O)(Nc1ccccn1)Oc1ccccc1 (configuration not stated),inactive: -0.88%
8,COc1ccccc1OP(C)(=O)Nc1ccc(C)cc1C (configuration not stated),inactive: 1.98%
9,CCc1ccc(OP(C)(=O)O)cc1,inactive: 17.9%
10,COc1ccc(OP(C)(=O)Nc2ccccn2)cc1 (configuration not stated),inactive: -5.25%
11,CN(C)CCOC(=O)C(O)(c1ccccc1)C1CCCC1 (configuration not stated),inactive: 22.7%
12,Cc1nc2ccc3ccccc3c2o1.O=[N+]([O-])c1cc([N+](=O)[O-])c(O)c([N+](=O)[O-])c1,inactive: 6.65%
13,COc1ccccc1OP(C)(=O)Nc1ccc(C)c(C)c1 (configuration not stated),inactive: -11.2%
14,CP(=O)(Nc1ccccc1)Oc1ccc(F)cc1 (configuration not stated),inactive: 8.72%
15,CP(=O)(Nc1ccccc1F)Oc1ccccc1 (configuration not stated),inactive: 2.1%
16,CP(=O)(Nc1ccc2c(c1)OCCO2)Oc1ccccc1 (configuration not stated),inactive: -5.93%

row,Structure (SMILES),inhibition
1,Cc1ccccc1NP(C)(=O)Nc1ccccc1C,inactive: -3.57%
2,CCOP(C)(=S)SCC(=O)NC(C)(CC)C(=O)O (configuration not stated),inactive: 19.6%
3,COc1ccc(OP(C)(=O)Nc2cccc(Br)c2)cc1 (configuration not stated),inactive: 19.1%
4,CN(C)CCOC(=O)C(O)(c1ccccc1)C1CCCCC1 (configuration not stated),inactive: 8.53%
5,COc1ccccc1OP(C)(=O)Nc1c(C)cccc1C (configuration not stated),inactive: 5.38%
6,Cc1nc2ccc3ccccc3c2s1.O=[N+]([O-])c1cc([N+](=O)[O-])c(O)c([N+](=O)[O-])c1,inactive: 8.37%
7,Cc1ccc(C)c(NP(C)(=O)Oc2ccccc2)c1 (configuration not stated),inactive: 3.02%
8,Cc1cc(C)cc(OP(C)(=O)Nc2ccccn2)c1 (configuration not stated),inactive: 15.2%
9,Cc1cc(C)cc(OP(C)(=O)Nc2ccc(C)cc2C)c1 (configuration not stated),inactive: 24.4%
10,COc1ccccc1OP(C)(=O)Nc1ccc(C)cc1 (configuration not stated),inactive: 1.73%
11,Cc1ccc(NP(C)(=O)Oc2ccccc2)c(C)c1 (configuration not stated),inactive: 11.4%
12,COc1ccc(OP(C)(=O)Nc2cccc(F)c2)cc1 (configuration not stated),inactive: -8.83%
13,CCOP(C)(=S)SCC(=O)NC(C)C(=O)O (configuration not stated),inactive: 3.07%
14,CP(=O)(Nc1ccccn1)Oc1ccc(Cl)cc1 (configuration not stated),inactive: 0.76%
15,CP(=O)(NC(=O)Nc1ccccc1)Oc1ccccc1 (configuration not stated),inactive: 0.73%
16,CP(=S)(Nn1cnnc1)Oc1ccccc1 (configuration not stated),inactive: -2.8%
